Measured values taken from patent US7799799B2, “Indolizine derivatives, method for preparing same, and therapeutic compositions comprising same” (Sanofi-Aventis, priority 2005, dated 2010).

Assay: Solubility test at pH=4 from phosphate buffer pH 6 0.1M, by HPLC
Format: physicochemical
Conditions: second figure of the S/pH cell; pH noted for the solubility sample
Protocol: The results for solubility, S, and pH are shown in the table below and are expressed in mg/ml.
A phosphate buffer, pH6, 0.1M, was prepared by adding 6.15 ml of 0.1M Na2HPO4 to 43.85 ml of 0.1M NaH2PO4. The solution was made up to 100 ml with filtered water using a Millipore system (trade mark).
Reference (Test Product in a Concentration in which the Latter is Soluble and which Acts as an Internal Reference)
About 0.2 mg (in a boat) was weighed out exactly and diluted in 1 ml of H2O/CH3CN: (50:50), i.e. 0.2 mg/ml, then the sample was subjected to ultrasound for 5 minutes.
About 4 mg (in a boat) was weighed out exactly and diluted in 400 μl (i.e. 10 mg/ml) of pH6 phosphate buffer (0.1M), then the sample was subjected to ultrasound for 5 minutes.
The pH was noted and if the pH was below 4, 1 μl of NaOH 1N was added (from 1 μl in 1 μl) until the pH was more than 4, then the pH was noted again. The solution (0.45 μm) was filtered then if necessary diluted with the phosphate buffer pH6. (If the product re-precipitated after diluting, the diluted sample was ignored, the mother solution was used and the solubility was determined at a wavelength other than λmax, to avoid saturating the signal.
The solubility of the compound was then determined by HPLC under the following conditions:
Instrument: Agilent 1100 chromatograph
Column temperature: 30° C. […]

Q: Which “pH (of the solubility sample)” value does the source give for `CCCCc1cc2ccccn2c1C(=O)c1ccc(CCCN(C)C)cc1.Cl` [compound 38, (2-butylindolizin-3-yl){4-[3-(dimethylamino)propyl]phenyl}methanone hydrochloride] here?
A: 6.7
